Source: patent publication US11345681B1, “Inhibitors of fibroblast growth factor receptor kinases” (Kinnate Biopharma Inc., priority 2020, dated 2022)

Chains of the proteins cited; added tags and fusions are not shown. Residues count along the entry.
UniProt P21802, 22-821: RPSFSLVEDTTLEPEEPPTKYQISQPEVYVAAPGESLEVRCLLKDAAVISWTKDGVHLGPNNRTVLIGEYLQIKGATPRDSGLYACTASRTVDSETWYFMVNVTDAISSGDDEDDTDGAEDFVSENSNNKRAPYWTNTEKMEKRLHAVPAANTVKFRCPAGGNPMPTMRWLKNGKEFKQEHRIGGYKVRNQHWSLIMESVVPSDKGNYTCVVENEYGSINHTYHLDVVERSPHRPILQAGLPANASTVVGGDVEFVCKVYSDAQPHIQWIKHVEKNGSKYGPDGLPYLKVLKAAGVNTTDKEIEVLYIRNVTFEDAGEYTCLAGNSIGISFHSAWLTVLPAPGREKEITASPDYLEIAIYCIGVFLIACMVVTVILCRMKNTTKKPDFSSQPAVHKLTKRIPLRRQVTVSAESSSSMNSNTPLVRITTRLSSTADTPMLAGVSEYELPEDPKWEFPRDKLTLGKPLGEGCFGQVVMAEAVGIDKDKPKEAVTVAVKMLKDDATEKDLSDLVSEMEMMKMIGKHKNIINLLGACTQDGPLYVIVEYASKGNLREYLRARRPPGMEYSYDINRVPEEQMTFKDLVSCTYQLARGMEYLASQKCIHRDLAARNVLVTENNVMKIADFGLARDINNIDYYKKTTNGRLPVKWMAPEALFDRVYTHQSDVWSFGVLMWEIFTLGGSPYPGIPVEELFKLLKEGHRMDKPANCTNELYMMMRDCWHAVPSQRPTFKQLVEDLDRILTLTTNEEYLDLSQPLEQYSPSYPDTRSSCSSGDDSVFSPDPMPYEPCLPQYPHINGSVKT

Target: Wild type FGFR2 (Homo sapiens (Human), UniProt P21802)
Assay: FGFR2 kinase assay (fluorescence-based microfluidic mobility shift assay)
Assay type: biochemical

SMILES | IC50 | IC50 (wild type FGFR2 0.06 nM, 100 μM ATP, 80 minutes at room temperature, class symbols)
C=CC(=O)N1C[C@@H](n2nc(C#Cc3cc4ncn([C@@H]5CC5(F)F)c4cc3F)c(C(N)=O)c2NC)C[C@@H]1COC (single isomer, unassigned) [Example 272] | < 100 nM | 
C=CC(=O)N1C[C@@H](n2nc(C#Cc3cc4ncc(C)c(C)c4cc3F)c(C(N)=O)c2NC)C[C@@H]1COC [Example 282, 1-((3S,5R)-1-Acryloyl-5-(methoxymethyl)pyrrolidin-3-yl)-3-((6-fluoro-3,4-dimethylquinolin-7-yl)ethynyl)-5-(methylamino)-1H-pyrazole-4-carboxamide] | < 100 nM | 
C=CC(=O)N1C[C@@H](n2nc(C#Cc3ccc4c(c3)nc(N)n4C)c(C(N)=O)c2NC)C[C@@H]1COC [Example 49, 3-[2-(2-Amino-1-methyl-1,3-benzodiazol-5-yl)ethynyl]-1-[(3S,5R)-5-(methoxymethyl)-1-(prop-2-enoyl)pyrrolidin-3-yl]-5-(methylamino)pyrazole-4-carboxamide] |  | ≤ 100 nM

Like-named read-outs stand apart in the source and are kept apart here.
